Data: PMC2637922, “Active-Site Inhibitors of mTOR Target Rapamycin-Resistant Outputs of mTORC1 and mTORC2” (PLoS Biology, 2009)

Test system: S6K, S6 and 4EBP1 phosphorylation in L6 myotubes
Test: mTORC1 substrate phosphorylation in L6 myotubes (Western blot)

CC(C)n1nc(-c2cccc(C(=O)NC3=NCCS3)c2)c2c(N)ncnc21 [PP30]
phosphorylation of 4EBP1 at T36/45: effective at reducing
